By UniProt entry, the sequences of proteins in these tests, tags left out.
plasma derived AAT (alpha1-antitrypsin, human plasma-extracted), P01009, UniProt P01009, whole entry, looked up: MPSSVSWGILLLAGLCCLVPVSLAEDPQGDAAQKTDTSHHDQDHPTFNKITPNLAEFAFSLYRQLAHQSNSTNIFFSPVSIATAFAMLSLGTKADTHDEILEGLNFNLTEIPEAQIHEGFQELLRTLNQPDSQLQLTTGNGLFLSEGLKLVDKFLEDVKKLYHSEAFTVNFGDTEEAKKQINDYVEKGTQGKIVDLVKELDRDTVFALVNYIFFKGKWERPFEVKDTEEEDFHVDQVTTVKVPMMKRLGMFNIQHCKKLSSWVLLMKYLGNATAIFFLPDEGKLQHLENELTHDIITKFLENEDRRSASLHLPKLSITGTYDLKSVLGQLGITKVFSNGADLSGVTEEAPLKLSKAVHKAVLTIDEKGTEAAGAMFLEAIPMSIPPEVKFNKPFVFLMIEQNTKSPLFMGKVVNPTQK

In patent publication US20230302104:

Target: plasma derived AAT (alpha1-antitrypsin, human plasma-extracted), P01009

B1: purified human neutrophil elastase (ELA2) (protein)
chain: IVGGRRARPHAWPFMVSLQLRGGHFCGATLIAPNFVMSAAHCVANVNVRAVRVVLGAHNLSRREPTRQVFAVQRIFENGYDPVNLLNDIVILQLNGSATINANVQVAQLPAQGRRLGNGVQCLAMGWGLLGRNRGIASVLQELNVTVVTSLCRRSNVCTLVRGRQAGVCFGDSGSPLVCNGLIHGIASFVRGGCASGLYPDAFAPVAQFVNWIDSIIQ
- neutrophil elastase protease activity, MeOSuc-AAPV-pNA substrate assay (Vmax, % of untreated); AAT at 1 nM and 10 nM: AAT and rhAAT inhibits neutrophil elastase protease activity
